{
  "sequences": {"note": "Sequences of proteins named here, by UniProt entry; tags and fusion partners are left off.", "UniProt P15823, whole entry": "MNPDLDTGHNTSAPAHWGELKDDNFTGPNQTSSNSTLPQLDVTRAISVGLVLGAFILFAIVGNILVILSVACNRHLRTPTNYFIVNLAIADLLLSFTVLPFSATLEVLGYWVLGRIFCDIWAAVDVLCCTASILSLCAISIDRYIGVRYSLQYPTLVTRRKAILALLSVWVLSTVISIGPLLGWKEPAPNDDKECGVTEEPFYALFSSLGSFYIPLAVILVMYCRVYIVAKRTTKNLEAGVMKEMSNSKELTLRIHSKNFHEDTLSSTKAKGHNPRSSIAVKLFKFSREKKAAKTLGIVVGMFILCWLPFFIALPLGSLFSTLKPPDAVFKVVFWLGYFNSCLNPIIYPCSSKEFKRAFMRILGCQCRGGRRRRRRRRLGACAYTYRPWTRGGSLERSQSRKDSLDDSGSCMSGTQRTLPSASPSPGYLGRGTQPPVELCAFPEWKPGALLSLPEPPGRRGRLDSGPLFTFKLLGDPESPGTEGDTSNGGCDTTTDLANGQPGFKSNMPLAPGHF", "UniProt P23944, whole entry": "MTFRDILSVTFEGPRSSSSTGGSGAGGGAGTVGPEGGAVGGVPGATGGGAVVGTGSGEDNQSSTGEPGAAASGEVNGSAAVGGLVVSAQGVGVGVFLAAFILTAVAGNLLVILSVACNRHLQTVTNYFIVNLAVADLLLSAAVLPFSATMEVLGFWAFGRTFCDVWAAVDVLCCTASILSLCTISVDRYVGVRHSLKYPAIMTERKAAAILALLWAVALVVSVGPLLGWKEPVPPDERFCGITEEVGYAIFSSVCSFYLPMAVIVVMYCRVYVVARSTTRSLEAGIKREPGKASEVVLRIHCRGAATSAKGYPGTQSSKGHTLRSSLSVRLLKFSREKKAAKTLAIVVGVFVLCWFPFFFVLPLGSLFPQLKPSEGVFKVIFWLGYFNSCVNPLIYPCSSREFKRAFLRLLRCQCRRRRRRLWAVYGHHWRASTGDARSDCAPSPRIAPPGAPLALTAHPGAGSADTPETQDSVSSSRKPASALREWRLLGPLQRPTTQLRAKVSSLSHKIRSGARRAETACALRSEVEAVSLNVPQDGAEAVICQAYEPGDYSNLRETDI", "UniProt P18841, whole entry": "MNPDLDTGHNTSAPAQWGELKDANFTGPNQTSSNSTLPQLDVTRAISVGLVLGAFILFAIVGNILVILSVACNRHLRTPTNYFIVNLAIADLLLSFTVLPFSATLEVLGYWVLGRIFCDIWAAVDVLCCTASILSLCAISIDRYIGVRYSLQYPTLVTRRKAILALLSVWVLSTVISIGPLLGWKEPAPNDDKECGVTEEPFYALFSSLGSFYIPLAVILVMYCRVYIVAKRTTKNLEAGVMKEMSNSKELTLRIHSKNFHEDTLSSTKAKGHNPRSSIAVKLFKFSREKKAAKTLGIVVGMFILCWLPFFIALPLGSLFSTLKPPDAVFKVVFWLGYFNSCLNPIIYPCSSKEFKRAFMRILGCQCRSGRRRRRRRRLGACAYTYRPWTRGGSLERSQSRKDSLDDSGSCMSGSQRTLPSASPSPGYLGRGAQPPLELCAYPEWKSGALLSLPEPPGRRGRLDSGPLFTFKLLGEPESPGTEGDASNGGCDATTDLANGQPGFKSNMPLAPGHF"},
  "source": "ChEMBL document CHEMBL3046380",
  "about": "“In Vitro and In Vivo Characterization of Alpha-1A Selective Agonists and Their Utility for Stress Incontience” (Med Chem Res, 2004)",
  "key": {"[1]": {"biological_target": "Alpha-1B adrenergic receptor (Rattus norvegicus) (UniProt P15823)", "assay": "Agonist activity at alpha1B adrenoreceptor in Rattus norvegicus (rat) spleen relative to phenylephrine"}, "[2]": {"biological_target": "Alpha-1B adrenergic receptor (Rattus norvegicus) (UniProt P15823)", "assay": "Agonist activity at alpha1B adrenoreceptor in Rattus norvegicus (rat) spleen"}, "[3]": {"biological_target": "Alpha-1D adrenergic receptor (Rattus norvegicus, UniProt P23944)", "assay": "Binding affinity to Rattus norvegicus (rat) alpha1D adrenoreceptor by radioligand displacement assay"}, "[4]": {"biological_target": "Alpha-1B adrenergic receptor (Mesocricetus auratus, UniProt P18841)", "assay": "Binding affinity to Cricetinae (hamster) alpha1B adrenoreceptor by radioligand displacement assay"}},
  "note": "Activity calls are given as the source filed them. The rule behind the calls is not given here.",
  "data": [
    {"smiles": "CS(=O)(=O)Nc1cccc2c1CCCC2c1c[nH]cn1", "note": "(centres undefined)", "values": [
      {"measurement": "Efficacy", "setting": "[1]", "result": 11, "unit": "%"}
    ]},
    {"smiles": "CCS(=O)(=O)Nc1cccc2c1CCC2c1c[nH]cn1", "note": "(centres undefined)", "values": [
      {"measurement": "pEC50", "setting": "[2]", "result": "inactive"}
    ]},
    {"smiles": "CC(=O)Nc1cccc2c1CCCC2c1c[nH]cn1", "note": "(centres undefined)", "values": [
      {"measurement": "Ki", "setting": "[3]", "result": "> 10", "unit": "µM"},
      {"measurement": "Ki", "setting": "[4]", "result": "> 10", "unit": "µM"}
    ]}
  ]
}
